Values of other authors, collected in patent publication US20260216110A1, “COMPOUND USEFUL AS THYROID HORMONE RECEPTOR ß-SELECTIVE THYROID HORMONE ANALOG” (NATIONAL UNIVERSITY CORPORATION TOKAI NATIONAL HIGHER …, priority 2022, published 2026).

Sequences of proteins named here, by UniProt entry; tags and fusion partners are left off.
UniProt P10828, whole entry: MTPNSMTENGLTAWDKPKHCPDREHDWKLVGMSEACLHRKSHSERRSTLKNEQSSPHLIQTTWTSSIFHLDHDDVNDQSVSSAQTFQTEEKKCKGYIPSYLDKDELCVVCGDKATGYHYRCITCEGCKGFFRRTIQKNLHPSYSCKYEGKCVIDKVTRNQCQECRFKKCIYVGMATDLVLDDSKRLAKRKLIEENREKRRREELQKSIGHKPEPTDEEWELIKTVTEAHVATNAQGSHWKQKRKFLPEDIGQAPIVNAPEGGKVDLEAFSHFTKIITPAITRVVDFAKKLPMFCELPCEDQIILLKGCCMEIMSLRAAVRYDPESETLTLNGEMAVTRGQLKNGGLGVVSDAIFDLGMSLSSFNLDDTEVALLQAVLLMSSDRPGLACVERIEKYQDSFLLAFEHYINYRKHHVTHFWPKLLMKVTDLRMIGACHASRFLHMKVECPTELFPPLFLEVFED

Target: THRβ (Homo sapiens, UniProt P10828)
Settings: relative to T3; cited from earlier work

Cc1cc(OCC(=O)O)cc(C)c1Cc1ccc(O)c(C(C)C)c1 [GC-1]
affinity for THRβ: without significantly compromising
